This is a selection; strong and weak results do not stand in their true shares. Calls of active or inactive are those of the source. No stated cut-off is given here; in the data, active means inhibition above about 36%; inactive means the rest.

Chains of the proteins cited; added tags and fusions are not shown.
UniProt P61081, whole entry, looked up: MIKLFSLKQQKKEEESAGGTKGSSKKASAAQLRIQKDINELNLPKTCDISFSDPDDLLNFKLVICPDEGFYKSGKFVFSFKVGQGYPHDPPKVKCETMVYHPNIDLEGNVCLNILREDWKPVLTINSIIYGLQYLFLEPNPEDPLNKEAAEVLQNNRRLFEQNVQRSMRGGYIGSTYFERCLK
UniProt Q13564, whole entry, looked up: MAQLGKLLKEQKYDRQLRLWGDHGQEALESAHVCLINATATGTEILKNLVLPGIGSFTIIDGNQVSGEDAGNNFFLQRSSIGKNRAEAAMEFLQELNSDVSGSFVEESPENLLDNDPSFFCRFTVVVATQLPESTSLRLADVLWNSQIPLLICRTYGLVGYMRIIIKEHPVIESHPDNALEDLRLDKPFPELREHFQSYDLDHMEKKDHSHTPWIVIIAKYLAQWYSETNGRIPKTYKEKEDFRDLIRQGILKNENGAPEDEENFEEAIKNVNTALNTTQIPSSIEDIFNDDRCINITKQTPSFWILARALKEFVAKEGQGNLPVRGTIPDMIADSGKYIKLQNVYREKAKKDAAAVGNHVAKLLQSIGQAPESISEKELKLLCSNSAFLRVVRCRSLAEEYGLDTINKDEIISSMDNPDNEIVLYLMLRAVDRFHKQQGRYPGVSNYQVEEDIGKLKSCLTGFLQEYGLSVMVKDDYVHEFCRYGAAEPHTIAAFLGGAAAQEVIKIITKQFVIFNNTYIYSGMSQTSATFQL

The target in the experiment is NEDD8-conjugating enzyme Ubc12 (Homo sapiens) + NEDD8-activating enzyme E1 regulatory subunit (Homo sapiens) (UniProt P61081+Q13564). Nature of the experiment: inhibitors of cullin neddylation, primary screen, biochemical, TR-FRET, uHTS, NAE and Ubc12 (AID 651699). The conditions noted are these: at 25 µM, stronger effect = higher value. For orientation: In TR-FRET formats the signal depends on donor and acceptor labels being close together.
As to `CCC(=O)N(c1ccccc1)C1(COC)CCN(CCn2nnn(CC)c2=O)CC1`, the inhibition was inactive: -10.2%. Regarding `CCC(=O)N(c1ccccc1)C1(COC)CCN(CCc2cccs2)CC1`, the inhibition is inactive: -7.2%.

By inhibition is commonly meant the drop in the measured response relative to a control, in per cent.

For the origin of these results see PubChem BioAssay AID651699 (Sanford-Burnham Center for Chemical Genomics, 2012).
